{"source": "patent EP3738614A1", "about": "“METHODS FOR PRODUCING HOMOGENEOUS ANTIBODY DRUG CONJUGATES” (priority 2019, dated 2020)", "key": {"[1]": {"tested_on": "BT474 human breast cancer cells", "assay": "Tumor growth inhibition in orthotopic breast cancer model", "format": "in vivo, athymic nude mice", "protocol": "The efficacy of the ADC from EXAMPLE 4 in tumor growth inhibition was tested in an orthotopic model of human BT747 breast cancer cells in athymic nude mice.\nBT474 human breast cancer cells were inoculated i.m.f.p into the right abdominal mammary fat pad in athymic nude mice. Once tumors were established, intravenous treatment with the ADC or the vehicle was started in a 2-dose administration. Thereafter, tumor volume, body weight and the appearance of clinical adverse effects were monitored along time. At the end time point, mammary primary tumor and main organs (liver, kidneys, spleen, lungs and heart) were excised and collected."}, "[2]": {"tested_on": "HER2-positive breast cancer cells SKBR3", "assay": "MTS cell-based cytotoxicity / cell inhibition assay", "settings": "SK-BR-3 cells, 72 hours incubation, FIG. 9", "text": "HER2-positive breast cancer cells SKBR3 were used to assess the cytotoxicity of the homogeneous DAR 2 T-MMAE (trastuzumab conjugated to MMAE) previously obtained. Its biological activity was compared to an in-house heterogeneous DAR 4 T-MMAE (control) using an in vitro MTS cell-based assay. SK-BR-3 cells at the logarithmic growth phase were washed with sterile PBS 1x (HyClone), treated with trypsin (Sigma), re-suspended in 10% Fetal Bovine Serum (Sigma) DMEM medium (Sigma) with cell density at 2x10^5 cells / ml and seeded in a 96-well cell culture plate (Corning) by applying 50 µL of cell suspension per well. The plates were incubated at 37°C in a humidified 5% CO2 incubator for 24 hours. Next, samples to be analyzed were diluted to the concentration range to be tested and 50 µL were applied to the cell culture wells under sterile conditions by using decreasing sample concentrations. An entire cell culture plate was required to analyze 1 sample because 7 replicates were analyzed per concentration. The last row of each plate was used as control, which consisted of cells in medium without sample to be tested. The plates were incubated at 37°C in a humidified 5% CO2 incubator for 72 hours. After incubation, each well was treated with 20 µL MTS solution (Promega, WI, USA) followed by incubation for 3 hours. The absorbance at 405 nm was measured with a Labtech LT-4000 microplate reader."}}, "data": [{"substance": "Homogeneous T-MMAE DAR 2", "values": [{"measurement": "Tumor Volume versus vehicle", "setting": "[1]; day 8, before the second ADC dose, T-test p = 0.0003, FIG. 10", "result": "much smaller volumes"}, {"measurement": "animals showing measurable tumors", "setting": "[1]; end-point (day 23), intravenous, 2-dose administration, vehicle group 100%", "result": 33, "unit": "%"}, {"measurement": "efficacy of treatment in tumor growth inhibition", "setting": "[1]; intravenous, 2-dose administration, monitored to day 23, FIG. 10", "result": "extremely effective"}, {"measurement": "antiproliferative effect on the target cells (% Proliferation)", "setting": "[2]", "result": "had an antiproliferative effect"}]}]}
